{
  "sequences": {"note": "Amino acid sequences for entries named in this document (tags omitted).", "UniProt Q8TDU6, whole entry": "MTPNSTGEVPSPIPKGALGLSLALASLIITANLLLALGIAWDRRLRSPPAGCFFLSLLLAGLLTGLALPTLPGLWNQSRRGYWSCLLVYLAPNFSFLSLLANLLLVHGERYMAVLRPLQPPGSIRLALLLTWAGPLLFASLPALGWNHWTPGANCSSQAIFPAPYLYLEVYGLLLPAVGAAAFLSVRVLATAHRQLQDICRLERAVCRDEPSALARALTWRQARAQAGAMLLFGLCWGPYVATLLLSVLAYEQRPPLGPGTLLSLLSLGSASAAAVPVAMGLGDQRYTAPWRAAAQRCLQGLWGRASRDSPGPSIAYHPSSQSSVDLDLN"},
  "source": "patent US12084472B2",
  "about": "(Ardelyx, Inc., priority 2015, dated 2024)",
  "molecular_target": "human TGR5 (Homo sapiens, UniProt Q8TDU6)",
  "test": "Cell-based TGR5 assay (cAMP generation, HTRF)",
  "settings": "HEK293 cells stably transfected with human TGR5; cAMP by HTRF; 30 minutes at 37° C.",
  "data": [
    {"smiles": "O=C(N[C@@H](CO)[C@@H](O)[C@H](O)[C@H](O)CO)c1ccc(OCc2ccc(Cl)c(COC3(c4cnccc4-c4ccccc4OC4CC4)CC3)c2)nc1", "values": [
      {"measurement": "pEC50 Human TGR5", "value": "B (B is a pEC50 of 6 to 6.9)"}
    ]}
  ]
}
